Data reported in US6200762A, “Photon reducing agents and compositions for fluorescence assays” (Aurora Biosciences Corporation, priority 1998, dated 2001).
Only a part of the results on these compounds is given; other tests are left out.

Experiment: Reduction of coumarin fluorescence by transition metal salts and complexes
Settings: ex. 395 nm, em. 460 nm; K-MOPS pH 7.15; 10 μM fluorophore

Substance: potassium ferricyanide (III)
- concentration at which coumarin fluorescence can be reduced: low millimolar range
